From PubChem BioAssay AID488899 (Broad Institute, 2010) come the findings set out here.

The entries are a selection whose mix differs from that of the whole data set. Some results for these compounds are left out of this collection, so the calls shown say nothing about other tests. Active and inactive are the calls of the source.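 How the source made its calls: active means mean inhibition across replicates of 60% or more, whatever share of single replicates reaches that level; inconclusive means some that reach 60%, reason not given; inactive means mean inhibition across replicates below 60%.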

This test can be described thus: MITF transcriptional activity suppression – cell-based, SK-MEL-5, single point, luciferase, primary screen (AID 488899). The note with it: SK-MEL-5 TRPM1 promoter luciferase, 24 h; at 12.5 µM; active compounds read high.
Take `CN1[C@@H]2CC[C@H]1CC(OC(=O)C(O)(c1ccccc1)c1ccccc1)C2` (stereo not given in full): the inhibition is inactive: -7.63%.

Turning to `O=C(NCC1(N2CCCCC2)CCCCC1)c1cc([N+](=O)[O-])ccc1Cl`, the inhibition is inactive: 6.52%. Consider `Cc1ccc(C(=O)NCC2(N3CCCCC3)CCCCC2)cc1`, for which the inhibition was inactive: -15.5%. The value for `COc1cc(SC)ccc1C(=O)NCC1(N(C)C)CCCCC1` was inactive: -0.435%; that for `CCN(CC)CC(C)C(C)OC(=O)C(O)(c1ccccc1)c1ccccc1` (stereo not given) was inactive: 10.5%; that for `CC(C)N1C(=O)CC2(CCN(CCOC(=O)C(O)(c3ccccc3)c3ccccc3)CC2)C1=O` was inactive: -6.32%. `CN(C)C1CCCC1OC(=O)C(O)(c1ccccc1)c1ccccc1` (stereo not given): the inhibition was inactive: -4.68%. Next, `CN(C)c1ccc(C(=O)NCC2(N(C)C)CCCCC2)cc1`: inactive: 3.78%; `Cc1ccccc1C(=O)NCC1(N2CCCCC2)CCCCC1`: inactive: 0.072%. Consider `COc1ccc(C(=O)NCC2(N(C)C)CCCCC2)cc1`, for which the inhibition is inactive: 2.34%. As for `O=C(NCC1(N2CCCCC2)CCCCC1)c1cccc(Br)c1`, the inhibition was inactive: -11.9%. For `Cc1cc(C(=O)NCC2(N3CCCCC3)CCCCC2)ccc1[N+](=O)[O-]`, the inhibition is inactive: -1.49%. The value for `CCN1CCCC(OC(=O)C2(O)c3ccccc3C=Cc3ccccc32)C1` (stereo not given) was inactive: 3.27%; that for `O=C(NCC1(N2CCCCC2)CCCCC1)c1cc(F)c(F)cc1Cl` was inactive: -10.1%.

On to `C=CCN1CCN(CCOC(=O)C(O)(c2ccccc2)c2ccccc2)CC1`, for which the inhibition was inactive: 3.26%.

As to `COc1cc(C(=O)NCC2(N(C)C)CCCCC2)c([N+](=O)[O-])cc1OC`, the inhibition is inactive: -23.8%. Take `CN(C)C1(CNC(=O)c2ccc(Br)cc2)CCCCC1`: the inhibition was inactive: -5.04%. `O=C(NCC1(N2CCCCC2)CCCCC1)c1cccc(Cl)c1`: the inhibition is inactive: -10.5%. Next, `COc1ccc(Cl)cc1C(=O)NCC1(N(C)C)CCCCC1`: inactive: 4.3%; `COc1cccc(C(=O)NCC2(N3CCCCC3)CCCCC2)c1`: inactive: 6.46%. On to `O=C(OC1CN2CCC1CC2)C(CO)(c1ccccc1)c1ccccc1` (stereo not given), for which the inhibition was inactive: -0.186%. For `O=C(OCCN1CCCC1)C(O)(c1ccccc1)c1ccccc1`, the inhibition is inactive: 1.06%. Next, `CC(C)Oc1ccc(C(=O)NCC2(N(C)C)CCCCC2)cc1`: inactive: -6.79%; `CN(C)c1cccc(C(=O)NCC2(N(C)C)CCCCC2)c1`: inactive: 15%; `COc1ccc(Br)c(C(=O)NCC2(N3CCCCC3)CCCCC2)c1`: inactive: -3.47%.

The term inhibition denotes the change of the read-out against control, counted positive when it falls.
